# Screens as filed in PubChem BioAssay.
# NRP1-CendR mod – NRP-1/CendR interaction modulation. O14786. AID 602438. inhibition, % at 25 µM. FAM-RPARPAR peptide binding to NRP-1, fluorescence polarization. 360,000 compounds, 0.85% hits;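 active means inhibition or corrected inhibition above about 18%, plus a signal ratio from 0.5 to 1.5, limit read from the data, passing the limit was not always enough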
# ASAP1 inh – blocks human ASAP1-stimulated Arf1 GTP hydrolysis; Q9ULH1; GDP FP detection; inhibition, % at 16.5 µM; AID 624377; 360,000 compounds, 0.19% hits; in the data active means inhibition above about 25%;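 further: 0% = vehicle with enzyme and substrate and 100% = no enzyme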
# MC4R barr agon – agonists of human melanocortin 4 receptor (MC4R) beta-arrestin; P32245; U2OS MC4R beta-arrestin complementation, luminescence; percent of melanotan II response, DMSO zero; activation, % at 8.9 µM; 360,000 compounds, 0.98% hits; AID 540308;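 active means activation above a per-plate cutoff, the mean activation of sample wells on that plate plus 3 SD, cut at about 8% in these data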
# MC4R antagonist – antagonists of human melanocortin 4 receptor (MC4R); 360,000 compounds, 0.48% hits; P32245; AID 540295; inhibition, % at 6.5 µM; MC4R-expressing cells, MTII-stimulated cAMP, LANCE TR-FRET;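 active means inhibition above its plate's cutoff, the mean of tested wells on that plate plus 3 SD, cut at about 29% in these data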;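 further: 0% = Melanotan II alone and 100% = Melanotan II plus saturating MCL0020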
#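 Test system: U2OS cells stably expressing human melanocortin 4 receptor (MC4R); also added: Melanotan II challenge; compound: 6.5 µM single dose; timing: 30-min compound preincubation, 1-h Melanotan II challenge, 1-h detection, room temperature; signal: Eu-cAMP/anti-cAMP TR-FRET, emission 671 nm; repeats: one well per compound, no replicates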
# ARFGAP1 inhibitor – inhibits rat ARF GTPase activating protein 1 | Q62848 | Arfgap1-stimulated ARF1 GTP hydrolysis, GDP FP detection | inhibition, % at 16.5 µM | 360,000 compounds, 0.26% hits | AID 651572;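 active means inhibition above a per-plate limit, mean inhibition of low control wells plus 3 SD, cut at about 25% in these data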;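 further: 0% = DMSO wells with enzyme and 100% = wells lacking Arfgap1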
#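 Material – truncated rat Arfgap1 GAP domain · Buffer or medium – HEPES-based buffer, pH 7.5 · Reagent – human ARF1(Δ1-17)-GTP substrate · Dosing – 16.5 µM single point, 1.26% DMSO · Schedule – GTP hydrolysis reaction 2 h at 25 °C · Technique – GDP detection by fluorescence polarization · Benchmarks – No-Arfgap1 wells (100%) versus DMSO full-reaction wells (0%) · Repeats – single replicate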
# Yeast UUG start-1 – yeast start codon fidelity modulation; AID 602363; activity score, % at 18.7 µM; S. cerevisiae UUG-firefly luciferase reporter, luminescence/redox ratio; 0.13% of 350,000 active;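 active means replicate mean at a twofold rise or more, about +100% in these data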;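 further: firefly luciferase made from a UUG start codon reports start codon fidelity; reporter light over untreated wells divided by growth signal over untreated wells; some hits fall short of that in this replicate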
# Yeast UUG start-2 – yeast start codon fidelity modulation; shares compounds with Yeast UUG start-1; S. cerevisiae UUG-start firefly luciferase, luminescence, 4 h; 100% means double the DMSO signal; activation, % at 38 µM; 540 tested, under 10 active; AID 652061;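 active means signal increase whose fitted curve reaches an absolute level of 40 at a concentration under 10 µM; inactive means activity opposite to the expected increase, or the rest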
# * = called active by the depositor; i = inactive; nt = not tested or not shown. This is a sample that favours compounds with a hit; in the whole collection about 2.3% have one here.
# Assay codes – A = NRP1-CendR mod; B = ASAP1 inh; C = MC4R barr agon; D = MC4R antagonist; E = ARFGAP1 inhibitor; F = Yeast UUG start-1; G = Yeast UUG start-2
> O=C(N[C@H]1CC[C@H](CCn2cc(C3(O)CCCC3)nn2)O[C@H]1CO)C1CCCCC1
  A = nt | B = nt | C = nt | D = nt | E = nt | F = 162* | G = i
> O=C(NCC[C@H]1CC[C@H](NC(=O)C2CCCCC2)[C@H](CO)O1)c1cnccn1
  A = nt | B = nt | C = nt | D = nt | E = nt | F = 158* | G = i
> O=C(C[C@@H]1C[C@@H]2c3cc(NS(=O)(=O)c4ccc(F)cc4)ccc3O[C@@H]2[C@@H](CO)O1)NCC1CC1
  A = nt | B = nt | C = nt | D = nt | E = nt | F = -2 | G = nt
> O=C([C@@H]1N[C@@H]2c3ccc(C4=CCCC4)c(=O)n3C[C@@H]2[C@H]1CO)N1CCc2ccccc2C1
  A = nt | B = nt | C = nt | D = nt | E = nt | F = 21 | G = nt
> Cc1cc(OCCOCCNC(C)C)cc(C)c1Cl
  A = 19 | B = 14 | C = 1 | D = -5 | E = 2 | F = -16 | G = nt
> Cc1cc(OCCCCNC(C)C)cc(C(C)C)c1
  A = 4 | B = -2 | C = 2 | D = 5 | E = 4 | F = 229* | G = 8
> C[C@H](CO)N1C[C@H](C)[C@H](CN(C)C(=O)c2ccccc2)Oc2ncc(C3=CCCCC3)cc2C1=O
  A = nt | B = nt | C = nt | D = nt | E = nt | F = 3 | G = nt
> C[C@@H](NC(=O)C[C@H]1C[C@@H]2c3cc(NS(C)(=O)=O)ccc3O[C@@H]2[C@@H](CO)O1)c1ccccc1
  A = nt | B = nt | C = nt | D = nt | E = nt | F = 21 | G = nt
> C[C@@H]1CN([C@@H](C)CO)C(=O)c2cc(-c3ccccc3)cnc2O[C@H]1CN(C)C(=O)C1CCCCC1
  A = nt | B = nt | C = nt | D = nt | E = nt | F = 10 | G = nt
> CCn1c(CCNC(=O)c2ccc(OC)cc2)nnc1SCC(=O)Nc1ccccc1F
  A = -2 | B = 12 | C = 2 | D = 5 | E = -9 | F = 316* | G = 1
> Cc1noc(C)c1NC(=O)N(C)C[C@@H]1Oc2c(NC(=O)c3ccncc3)cccc2C(=O)N([C@@H](C)CO)C[C@@H]1C
  A = nt | B = nt | C = nt | D = nt | E = nt | F = -7 | G = nt
> O=[N+]([O-])c1c(NCc2ccco2)ccc2nonc12
  A = 6 | B = -7 | C = -1 | D = 0 | E = -5 | F = 134* | G = 3
> CCCC(=O)N1C[C@@H]2[C@H](c3ccccc31)[C@H](CO)N2C(=O)Nc1ccc(F)cc1
  A = nt | B = nt | C = nt | D = nt | E = nt | F = 17 | G = nt
> CCOc1ncccc1C(=O)OCC(=O)Nc1cc(S(=O)(=O)N(CC)CC)ccc1C
  A = 2 | B = -3 | C = 0 | D = 22 | E = 0 | F = nt | G = nt
> CCN(CC)S(=O)(=O)c1ccc(C)c(NC(=O)COC(=O)C=C(C)C)c1
  A = 1 | B = 13 | C = 2 | D = -2 | E = -3 | F = 180* | G = 1
> COCC(=O)N(C)C[C@@H]1Oc2ncc(-c3ccccc3C)cc2C(=O)N([C@H](C)CO)C[C@H]1C
  A = nt | B = nt | C = nt | D = nt | E = nt | F = 1 | G = nt
> CCOC(=O)CNC(=O)c1nn(-c2ccc(OCC)cc2)c(=O)c2ccccc12
  A = -20 | B = 3 | C = -2 | D = 7 | E = -2 | F = 119* | G = -9
> CCc1[nH]c(C)c(C(C)=O)c1C
  A = -9 | B = 0 | C = -1 | D = 2 | E = 10 | F = 416* | G = 4
> CC(=O)c1c(C)[nH]c(C)c1C(C)=O
  A = -5 | B = -4 | C = 1 | D = 1 | E = -8 | F = -1 | G = nt
> O=C(C[C@@H]1CC[C@H](NC(=O)c2cccc(F)c2)[C@@H](CO)O1)NCc1ccc(Oc2ccccc2)cc1
  A = nt | B = nt | C = nt | D = nt | E = nt | F = 145* | G = i

# Next section; it opens with the 3 that closed the last part.
# Assay codes – A = NRP1-CendR mod; B = ASAP1 inh; C = MC4R barr agon; D = MC4R antagonist; E = ARFGAP1 inhibitor; F = Yeast UUG start-1; G = Yeast UUG start-2
> CCc1[nH]c(C)c(C(C)=O)c1C
  A = -9 | B = 0 | C = -1 | D = 2 | E = 10 | F = 416* | G = 4
> CC(=O)c1c(C)[nH]c(C)c1C(C)=O
  A = -5 | B = -4 | C = 1 | D = 1 | E = -8 | F = -1 | G = nt
> O=C(C[C@@H]1CC[C@H](NC(=O)c2cccc(F)c2)[C@@H](CO)O1)NCc1ccc(Oc2ccccc2)cc1
  A = nt | B = nt | C = nt | D = nt | E = nt | F = 145* | G = i
> O=C(C[C@H]1C=C[C@@H](NC(=O)C2CC2)[C@H](CO)O1)NCc1ccccc1Cl
  A = nt | B = nt | C = nt | D = nt | E = nt | F = -2 | G = nt
> CCN(CCCNc1cc2c(c(N)c1S(=O)(=O)O)C(=O)c1ccccc1C2=O)c1ccccc1
  A = 24 | B = 14 | C = -4 | D = -4 | E = 4 | F = 135* | G = -21
> O=C(CSc1nnc2c(n1)[nH]c1ccccc12)OCc1ccccc1
  A = -6 | B = 0 | C = -2 | D = 8 | E = 4 | F = 410* | G = 1
> O=C(O)CSc1nnc2c(n1)[nH]c1ccccc12
  A = 5 | B = 17 | C = -5 | D = 0 | E = 0 | F = nt | G = nt
> C[C@@H]1CN([C@@H](C)CO)C(=O)c2cccc(NC(=O)c3nc4ccccc4s3)c2O[C@H]1CN(C)S(C)(=O)=O
  A = nt | B = nt | C = nt | D = nt | E = nt | F = 9 | G = nt
> COc1c(C)cccc1C(=O)NCc1ccc2c(c1)OCO2
  A = 8 | B = -4 | C = -1 | D = 13 | E = 5 | F = active | G = -10
> Cc1c(C(=O)NCc2ccc3c(c2)OCO3)cccc1[N+](=O)[O-]
  A = 15 | B = -10 | C = -2 | D = 20 | E = 0 | F = nt | G = nt
> OCCNc1nc(NCc2ccccc2)c2ccccc2n1
  A = 12 | B = 4 | C = 0 | D = -3 | E = 7 | F = 155* | G = -3
> Cc1ccc(C)c(N2C(=N)S/C(=C\c3ccc(-c4ccccc4C(=O)O)o3)C2=O)c1
  A = -88 | B = -13 | C = -2 | D = 6 | E = -7 | F = 113* | G = -4
> C[C@H]1CN([C@@H](C)CO)C(=O)c2cc(-c3ccncc3)cnc2O[C@@H]1CN(C)C(=O)Cc1cccnc1
  A = nt | B = nt | C = nt | D = nt | E = nt | F = -14 | G = nt
> Cc1ccc(-n2c(C)nn(CC#N)c2=O)cc1
  A = 17 | B = -4 | C = 2 | D = 4 | E = -4 | F = 346* | G = -1
> Cc1nn(CC#N)c(=O)n1-c1ccccc1F
  A = 5 | B = 2 | C = -2 | D = 1 | E = 4 | F = -19 | G = nt
> CO[C@@H]1CN(C)C(=O)c2ccc(NS(=O)(=O)c3ccccc3C)cc2OC[C@H](C)N(S(C)(=O)=O)C[C@H]1C
  A = nt | B = nt | C = nt | D = nt | E = nt | F = 9 | G = nt
> C=CCN(c1ccccc1)S(=O)(=O)c1cccc(C(=O)O)c1
  A = 1 | B = -5 | C = 2 | D = -5 | E = -2 | F = 519* | G = 0
> CCCNC(=O)N[C@H]1CC[C@H](CCn2cc(C3CC3)nn2)O[C@@H]1CO
  A = nt | B = nt | C = nt | D = nt | E = nt | F = 145* | G = i
> CN(C)CC(=O)N[C@H]1CC[C@H](CCn2cc(CN(C)C)nn2)O[C@@H]1CO
  A = nt | B = nt | C = nt | D = nt | E = nt | F = -10 | G = nt
> CCCNC(=O)N[C@@H]1CC[C@@H](CCn2cc(C3CC3)nn2)O[C@H]1CO
  A = nt | B = nt | C = nt | D = nt | E = nt | F = 4 | G = nt
> COCc1cn(CC[C@@H]2CC[C@H](NC(=O)CCN3CCCCC3)[C@@H](CO)O2)nn1
  A = nt | B = nt | C = nt | D = nt | E = nt | F = 39* | G = i
> CC(C)c1cn(CC[C@@H]2CC[C@H](N)[C@@H](CO)O2)nn1
  A = nt | B = nt | C = nt | D = nt | E = nt | F = 193* | G = i
> CN(C)CC(=O)N[C@H]1CC[C@H](CCn2cc(CN(C)C)nn2)O[C@H]1CO
  A = nt | B = nt | C = nt | D = nt | E = nt | F = 191* | G = i
> C[C@@H]1CCCCO[C@H](CN(C)C(=O)Nc2ccc(F)cc2)[C@H](C)CN([C@H](C)CO)C(=O)c2cc(NC(=O)C3CCCCC3)ccc2O1
  A = nt | B = nt | C = nt | D = nt | E = nt | F = 19 | G = nt
> COCCNC(=O)C[C@@H]1C[C@H]2c3cc(NC(=O)NC4CCCC4)ccc3O[C@H]2[C@@H](CO)O1
  A = nt | B = nt | C = nt | D = nt | E = nt | F = -1 | G = nt
> COc1ccc(-c2oc(NC(=O)CCl)c(C#N)c2-c2ccc(OC)cc2)cc1
  A = -40 | B = -11 | C = 1 | D = 2 | E = -8 | F = 308* | G = 14
> COc1ccc(-c2oc(NC(=O)CSc3ncn[nH]3)c(C#N)c2-c2ccc(OC)cc2)cc1
  A = -10 | B = nt | C = 1 | D = 16 | E = nt | F = nt | G = nt
> Cc1ccccc1-n1c(SCC(=O)N(C)C2CCS(=O)(=O)C2)nnc1-c1ccncc1 (stereo unspecified)
  A = -6 | B = 5 | C = -2 | D = -8 | E = -5 | F = -17 | G = nt
> Cc1ccccc1-n1c(SCC(=O)c2cc(C)n(C)c2C)nnc1-c1ccncc1
  A = 2 | B = -3 | C = 0 | D = 16 | E = 1 | F = -18 | G = 10
> CO[C@@H]1CN(C)C(=O)c2ccc(NC(=O)Nc3c(C)noc3C)cc2OC[C@@H](C)N(C)C[C@@H]1C
  A = nt | B = nt | C = nt | D = nt | E = nt | F = -8 | G = nt
